Tested on: Ba/F3^BCR-FMS-11 cells
Test: Cell proliferation experiment (Ba/F3^BCR-FMS-11, cckit-8)
Type: cell-based, mouse
Settings: Ba/F3^BCR-FMS-11 cell proliferation, 72 hours
Procedure: Cell Proliferation Experiment
Ba/F3^BCR-FMS-11, mouse primary B lymphocytes stably expressing the BCR-FMS fusion gene. The cells were cultured in an RPMI 1640 medium containing 10% FBS.
2. Reagents and instruments
• cckit-8 kit: Dojindo, 9 CK04; • Envision: Perkin Elmer; • Cell culture plate: Facol, 9353027. 3. Experimental steps
The BCR-FMS fusion gene was transfected into Ba/F3 cells, and the cell line Ba/F3^BCR-FMS-11 that stably expresses BCR-FMS and grows depending on CSF-1R was screened. Ba/F3^BCR-FMS-11 cell proliferation experiments is completed by using the Cell Counting kit cckit-8 in a 96-well plate. In a 96-well plate, 5000/well of Ba/F3^BCR-FMS-11 cells were inoculated at 100 μL/well. […] 10 μL of the compound dilutions with the above 8 concentrations were added to the culture cell wells. The culture was incubated in a 37° C. and 5% CO2 cell incubator for 72 hours. […] The optical density absorption value at 450 nm of each well was detected by using Perkin Elmer Envision instrument.
wherein • Drug-treated well read-out: indicating the optical density signal of a cell well with the test compound treatment. • Cell well read-out: indicating the optical density signal of a cell well not treated with the test compound (only 0.5% DMSO). • Background read-out: indicating the optical density signal of a well with the cell medium. […]

IC50: 14 nM
Compound: Cn1cc(-c2cc(Oc3ccc(NC(=O)c4cnc5ccccn5c4=O)nc3)ccn2)cn1 [Compound 28]
